Reference: patent US7212853B1 (priority 1996, dated 2007)

Assays:
[1] = Transdermal electrotransport delivery of fentanyl with pulsed current at 1, 10 and 625 Hz (Example 4, Table 1); conditions: for Rate of Fentanyl Delivery, After Bolus Treatment: after DC bolus 30 minutes at 0.1 mA/cm^2
[2] = Transdermal electrotransport delivery of fentanyl at constant DC current densities of 10, 20 and 40 μA/cm^2 (Example 2); conditions: for average transdermal fentanyl rate: constant DC, 24 h, 8 volunteers
[3] = Transdermal electrotransport delivery of fentanyl in volunteers: effect of initial high current density boluses (Example 1); conditions: for mean transdermal fentanyl flux: calculated from serum concentrations
[4] = 1 Hz, pulse width 310 msec, 31% duty cycle
[5] = 10 Hz, pulse width 31 msec, 31% duty cycle
[6] = 625 Hz, pulse width 0.5 msec, 31% duty cycle

CCC(=O)N(c1ccccc1)C1CCN(CCc2ccccc2)CC1
Rate of Fentanyl Delivery, Without Bolus Treatment [1, 4]: 48** μg/hr. | Rate of Fentanyl Delivery, After Bolus Treatment [1, 4]: 48** μg/hr. | Rate of Fentanyl Delivery, Without Bolus Treatment [1, 5]: 52** μg/hr. | Rate of Fentanyl Delivery, After Bolus Treatment [1, 5]: 52** μg/hr. | difference in fentanyl flux between 1 and 10 Hz ([1]; 200 μA pulses (100 μA/cm^2), 31% duty cycle): No statistically significant difference | Rate of Fentanyl Delivery, Without Bolus Treatment [1, 6]: 7 µg/h | Rate of Fentanyl Delivery, After Bolus Treatment [1, 6]: 34 µg/h | minimum pulse width to cause transformation to the higher efficiency state ([1]; fentanyl, stated as believed): about 10 msec | fentanyl flux (in words, FIG. 7) ([1]; pulsing frequencies 1 and 10 Hz, 200 μA pulses (100 μA/cm^2), 31% duty cycle): increased fentanyl flux | fentanyl flux (in words, FIG. 7) ([1]; square-wave 625 Hz, 200 μA pulses (100 μA/cm^2), 31% duty cycle): minimal fentanyl flux | average transdermal fentanyl rate ([2]; 10 μA/cm^2 (50 μA)): 19 µg/h | average transdermal fentanyl rate ([2]; 20 μA/cm^2 (100 μA)): 73 µg/h | average transdermal fentanyl rate ([2]; 40 μA/cm^2 (200 μA)): 173 µg/h | enhancement of efficiency of fentanyl delivery ([2]; change in current density from 10 to 40 μA/cm^2): about 2.5 fold | increase in drug rate ([2]; current increased four-fold from 50 μA to 200 μA): ten | enhancement of electrotransport delivery efficiency (factor) ([3]; initial high current density boluses vs baseline current only): two | mean transdermal fentanyl flux ([3]; six volunteers, four 260 μA/cm^2, 2.5 minute boluses in first hour, then 20 μA/cm^2 through 24 hours): 113 µg/h | mean transdermal fentanyl flux ([3]; twelve volunteers, only 20 μA/cm^2 baseline current over 24 hours): 57 µg/h

Only a part of the results on these compounds is given; other tests are left out. Marks after values point to notes of the source that are not given here.
